{"sequences": {"note": "By UniProt entry, the sequences of proteins in these tests, tags left out.", "UniProt P07237, whole entry": "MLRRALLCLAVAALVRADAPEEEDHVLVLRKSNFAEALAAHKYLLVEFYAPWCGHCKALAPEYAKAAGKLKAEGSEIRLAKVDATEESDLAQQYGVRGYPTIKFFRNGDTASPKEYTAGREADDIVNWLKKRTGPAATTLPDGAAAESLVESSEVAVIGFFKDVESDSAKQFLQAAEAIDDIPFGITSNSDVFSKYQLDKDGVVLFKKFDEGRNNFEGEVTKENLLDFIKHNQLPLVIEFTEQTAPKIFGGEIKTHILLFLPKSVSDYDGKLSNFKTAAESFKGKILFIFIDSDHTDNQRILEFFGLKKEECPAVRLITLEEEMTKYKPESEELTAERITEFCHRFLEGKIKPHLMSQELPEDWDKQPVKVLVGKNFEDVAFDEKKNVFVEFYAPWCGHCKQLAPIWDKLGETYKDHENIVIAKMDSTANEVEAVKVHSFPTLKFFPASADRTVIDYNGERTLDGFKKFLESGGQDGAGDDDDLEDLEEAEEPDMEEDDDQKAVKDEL"}, "source": "PubChem BioAssay AID588391", "about": "(Broad Institute, 2011)", "note": "The entries are a selection whose mix differs from that of the whole data set. Some of these compounds have results that are not shown, active ones among them. The source made the active and inactive calls.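 How the source made its calls: active means mean inhibition across replicates of 30% or more, whatever share of single replicates reach that level; inconclusive means mean inhibition below 30% while every single replicate reaches 30%; inactive means the rest.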", "data": [{"molecular_target": "Protein disulfide-isomerase (Homo sapiens) (UniProt P07237)", "experiment": "blockers of PDI-driven insulin aggregation – biochemical, turbidity, single point, plate reader, primary screen (AID 588391);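 further: absorbance from insulin aggregation driven by PDI reduction with DTT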", "conditions": "A650, 90 min, at 10 µM, active compounds read high", "values": [{"smiles": "COc1ccc(C(=O)NCC2(N(C)C)CCCCC2)cc1", "inhibition": "inactive: -3.98%"}, {"smiles": "Cc1cc(C(=O)NCC2(N3CCCCC3)CCCCC2)ccc1[N+](=O)[O-]", "inhibition": "inactive: -69.8%"}, {"smiles": "CCN1CCCC(OC(=O)C2(O)c3ccccc3C=Cc3ccccc32)C1", "note": "(stereo unspecified)", "inhibition": "inactive: -2.31%"}, {"smiles": "O=C(NCC1(N2CCCCC2)CCCCC1)c1cccc(Br)c1", "inhibition": "inactive: 7.41%"}, {"smiles": "C=CCN1CCN(CCOC(=O)C(O)(c2ccccc2)c2ccccc2)CC1", "inhibition": "inactive: -1.68%"}, {"smiles": "O=C(NCC1(N2CCCCC2)CCCCC1)c1cc(F)c(F)cc1Cl", "inhibition": "inactive: -40.8%"}, {"smiles": "Cc1ccccc1C(=O)NCC1(N2CCCCC2)CCCCC1", "inhibition": "inactive: -14.4%"}, {"smiles": "CN(C)C1CCCC1OC(=O)C(O)(c1ccccc1)c1ccccc1", "note": "(stereo unspecified)", "inhibition": "inactive: -5.33%"}, {"smiles": "CN(C)c1ccc(C(=O)NCC2(N(C)C)CCCCC2)cc1", "inhibition": "inactive: 13.1%"}, {"smiles": "Cc1ccc(C(=O)NCC2(N3CCCCC3)CCCCC2)cc1", "inhibition": "inactive: 3.56%"}, {"smiles": "CCN(CC)CC(C)C(C)OC(=O)C(O)(c1ccccc1)c1ccccc1", "note": "(stereo unspecified)", "inhibition": "inactive: 3.19%"}, {"smiles": "COc1cc(SC)ccc1C(=O)NCC1(N(C)C)CCCCC1", "inhibition": "inactive: -1.52%"}, {"smiles": "CC(C)N1C(=O)CC2(CCN(CCOC(=O)C(O)(c3ccccc3)c3ccccc3)CC2)C1=O", "inhibition": "inactive: -2.01%"}, {"smiles": "CN1[C@@H]2CC[C@H]1CC(OC(=O)C(O)(c1ccccc1)c1ccccc1)C2", "note": "(stereo partly specified)", "inhibition": "inactive: -2.13%"}, {"smiles": "O=C(NCC1(N2CCCCC2)CCCCC1)c1cc([N+](=O)[O-])ccc1Cl", "inhibition": "inactive: 8.09%"}, {"smiles": "CC(C)Oc1ccc(C(=O)NCC2(N(C)C)CCCCC2)cc1", "inhibition": "inactive: -17.1%"}, {"smiles": "O=C(OCCN1CCCC1)C(O)(c1ccccc1)c1ccccc1", "inhibition": "inactive: -0.846%"}, {"smiles": "CN(C)c1cccc(C(=O)NCC2(N(C)C)CCCCC2)c1", "inhibition": "inactive: 0.72%"}, {"smiles": "C=C(C)C#CC(O)(C(=O)OC1CCN(C)CC1)c1ccccc1", "note": "(stereo unspecified)", "inhibition": "inactive: 3.68%"}, {"smiles": "COc1ccc(Br)c(C(=O)NCC2(N3CCCCC3)CCCCC2)c1", "inhibition": "inactive: -1.63%"}, {"smiles": "O=C(OC1CN2CCC1CC2)C(CO)(c1ccccc1)c1ccccc1", "note": "(stereo unspecified)", "inhibition": "inactive: 2.69%"}, {"smiles": "O=C(NCC1(N2CCCCC2)CCCCC1)c1cccc(Cl)c1", "inhibition": "inactive: 6.54%"}, {"smiles": "COc1cccc(C(=O)NCC2(N3CCCCC3)CCCCC2)c1", "inhibition": "inactive: 8.05%"}, {"smiles": "COc1ccc(Cl)cc1C(=O)NCC1(N(C)C)CCCCC1", "inhibition": "inactive: 7.33%"}, {"smiles": "COc1cc(C(=O)NCC2(N(C)C)CCCCC2)c([N+](=O)[O-])cc1OC", "inhibition": "inactive: -0.393%"}, {"smiles": "CN(C)C1(CNC(=O)c2ccc(Br)cc2)CCCCC1", "inhibition": "inactive: 14.8%"}]}]}
